PMC12264554 (2025)
Where two headings read alike, the source gives them in different places.

Settings: for K2EDTA KRBC/PL: pooled K2EDTA whole blood; for K2EDTA KRBC/PL / Heparin KRBC/PL: 2 hours, LC-MS/MS (ICP-MS for Ga^3+); for Heparin KRBC/PL: pooled sodium heparin whole blood; for KRBC/PL: equilibrium data, ICP-MS, K2EDTA whole blood

O=[N+]([O-])[O-].O=[N+]([O-])[O-].O=[N+]([O-])[O-].[Ga+3] [Ga^3+, gallium nitrate, reference compound]
K2EDTA KRBC/PL (0.1 μg/mL): 0.12 ± 0.01 | Heparin KRBC/PL (0.1 μg/mL): 0.12 ± 0.01 | K2EDTA KRBC/PL (1 μg/mL): 0.11 ± 0.03 | Heparin KRBC/PL (1 μg/mL): 0.11 ± 0.01 | KRBC/PL (B/P ratio) (concentration in whole blood divided by concentration in plasma, this study): 0.3 | KRBC/PL (HQC): 0.114 ± 0.026 | KRBC/PL (LQC): 0.115 ± 0.010
